Laboratory results reported in ChEMBL document CHEMBL4831544, “Discovery of IHMT-EZH2-115 as a Potent and Selective Enhancer of Zeste Homolog 2 (EZH2) Inhibitor for the Treatment of B-Cell Lymphomas” (J Med Chem, 2021).

The chains behind the UniProt entries cited, without tags or fusion partners.
UniProt Q15910, whole entry Y641F: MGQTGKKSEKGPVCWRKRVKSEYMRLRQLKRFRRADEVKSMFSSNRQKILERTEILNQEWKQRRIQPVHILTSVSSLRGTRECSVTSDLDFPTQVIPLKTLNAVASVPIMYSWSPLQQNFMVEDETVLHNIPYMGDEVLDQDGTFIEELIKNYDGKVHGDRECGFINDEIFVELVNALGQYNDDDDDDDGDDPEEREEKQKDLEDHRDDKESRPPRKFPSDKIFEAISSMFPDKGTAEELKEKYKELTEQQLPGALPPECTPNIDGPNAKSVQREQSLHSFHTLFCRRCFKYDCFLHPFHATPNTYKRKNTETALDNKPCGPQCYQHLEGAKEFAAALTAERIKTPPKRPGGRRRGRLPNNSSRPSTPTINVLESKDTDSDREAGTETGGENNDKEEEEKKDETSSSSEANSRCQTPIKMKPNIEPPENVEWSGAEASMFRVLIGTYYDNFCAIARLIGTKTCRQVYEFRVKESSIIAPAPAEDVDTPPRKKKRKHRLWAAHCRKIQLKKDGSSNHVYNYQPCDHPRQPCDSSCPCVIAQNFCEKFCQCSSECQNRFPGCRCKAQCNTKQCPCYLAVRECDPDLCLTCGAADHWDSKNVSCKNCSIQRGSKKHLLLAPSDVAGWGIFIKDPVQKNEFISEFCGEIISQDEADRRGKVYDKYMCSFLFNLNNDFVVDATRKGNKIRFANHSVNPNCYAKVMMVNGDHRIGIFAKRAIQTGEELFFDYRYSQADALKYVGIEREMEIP

These molecules were tested against Histone-lysine N-methyltransferase EZH2 (Homo sapiens, UniProt Q15910, Y641F) (assay: Inhibition of EZH2 Y641F mutant (unknown origin) using SAM as substrate incubated for 60 mins by luminescence microplate reader assay).

| SMILES | IC50 [nM] |
| --- | --- |
| CCN(C(=O)C1CC1)c1cc(-c2ccc(NC(=O)CCN(C)C)cc2)cc(C(=O)NCc2c(C)cc(C)[nH]c2=O)c1C | 34.9 |
| Cc1cc(C)c(CNC(=O)c2cc(-c3ccc(CN4CCOCC4)cc3)cc3c2CCN3C(=O)C2CC2)c(=O)[nH]1 | 5290 |
| Cc1cc(C)c(CNC(=O)c2cc(-c3ccc(CN4CCOCC4)cc3)cc3c2CCN3C(=O)C2CCOCC2)c(=O)[nH]1 | 6220 |
| CCN(C(=O)C1CC1)c1cc(-c2ccc(N)cc2)cc(C(=O)NCc2c(C)cc(C)[nH]c2=O)c1C | 61.2 |
| CCN(C(=O)C1CC1)c1cc(-c2ccc(N3CCN(CC4CC4)CC3)cc2)cc(C(=O)NCc2c(C)cc(C)[nH]c2=O)c1C | 50.5 |
| CCN1CCN(c2ccc(-c3cc(C(=O)NCc4c(C)cc(C)[nH]c4=O)c(C)c(N(CC)C(=O)C4CC4)c3)cc2)CC1 | 40.7 |
| CCN(C(=O)C1CC1)c1cc(-c2cnc(N3CCN(CC4CC4)CC3)c(C)c2)cc(C(=O)NCc2c(C)cc(C)[nH]c2=O)c1C | 30.4 |

Continued, values first:

| IC50 [nM] | SMILES |
| --- | --- |
| 24.4 | CCN(C(=O)C1CC1)c1cc(-c2ccc(N3CCN(CC4CC4)CC3)nc2)cc(C(=O)NCc2c(C)cc(C)[nH]c2=O)c1C |
| 33.1 | CCN(C(=O)C1CC1)c1cc(-c2ccc(N3CCNCC3)cc2)cc(C(=O)NCc2c(C)cc(C)[nH]c2=O)c1C |
| 6240 | Cc1cc(C)c(CNC(=O)c2cc(-c3ccc(CN4CCOCC4)cc3)cc3c2CCN3C(=O)c2ccco2)c(=O)[nH]1 |
| 70.3 | CCN(C(=O)C1CC1)c1cc(-c2ccc(NC(=O)c3cccnc3)cc2)cc(C(=O)NCc2c(C)cc(C)[nH]c2=O)c1C |
| 49.6 | CCN(C(=O)C1CC1)c1cc(-c2ccc(NC(=O)C3CCOCC3)cc2)cc(C(=O)NCc2c(C)cc(C)[nH]c2=O)c1C |
| 40.4 | CCN(C(=O)C1CC1)c1cc(-c2cnc(N3CCN(CC4CC4)CC3)cc2C)cc(C(=O)NCc2c(C)cc(C)[nH]c2=O)c1C |
| > 10000 | Cc1cc(C)c(CNC(=O)c2cc(-c3ccc(CN4CCOCC4)cc3)cc3c2CCN3C(=O)C2CCCC2)c(=O)[nH]1 |
| 150 | CCN(C(=O)C1CC1)c1cc(-c2ccc(NC(=O)c3cccs3)cc2)cc(C(=O)NCc2c(C)cc(C)[nH]c2=O)c1C |
| 79.1 | CCN(C(=O)C1CC1)c1cc(-c2ccc(N3CCOCC3)cc2)cc(C(=O)NCc2c(C)cc(C)[nH]c2=O)c1C |
